Measured values taken from patent US20240009175A9, “TETRAZOLE DERIVATIVES” (Merck Patent GmbH, priority 2020, published 2024).

Chains of the proteins cited; added tags and fusions are not shown.
UniProt Q9NR19, whole entry: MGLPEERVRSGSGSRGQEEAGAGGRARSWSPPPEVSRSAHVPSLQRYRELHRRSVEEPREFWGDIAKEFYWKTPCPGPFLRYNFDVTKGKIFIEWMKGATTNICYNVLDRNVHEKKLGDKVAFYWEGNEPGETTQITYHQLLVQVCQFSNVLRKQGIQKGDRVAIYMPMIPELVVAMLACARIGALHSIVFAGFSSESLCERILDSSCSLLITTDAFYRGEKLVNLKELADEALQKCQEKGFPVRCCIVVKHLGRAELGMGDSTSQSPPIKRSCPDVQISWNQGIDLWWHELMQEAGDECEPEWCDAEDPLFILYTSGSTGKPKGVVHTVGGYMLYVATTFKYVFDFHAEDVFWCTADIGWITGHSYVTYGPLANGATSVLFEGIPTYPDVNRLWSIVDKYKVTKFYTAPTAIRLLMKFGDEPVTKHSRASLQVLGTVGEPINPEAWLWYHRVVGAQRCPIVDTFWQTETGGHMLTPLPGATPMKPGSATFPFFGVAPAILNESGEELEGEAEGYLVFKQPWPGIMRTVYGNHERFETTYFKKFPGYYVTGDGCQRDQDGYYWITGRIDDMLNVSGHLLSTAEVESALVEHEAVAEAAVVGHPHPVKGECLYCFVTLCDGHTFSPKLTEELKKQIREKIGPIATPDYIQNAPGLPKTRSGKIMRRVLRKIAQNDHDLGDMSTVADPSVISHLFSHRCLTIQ

Assays:
ACSS2 = ACSS2 (Homo sapiens (Human), UniProt Q9NR19); assay: Cellular assay of 14C acetate incorporation into histones (IC50 ACSS2 cellular histone); settings: read-out: IC50 cellular Histone, HCT-15 cells
human rec ACSS2 = human rec ACSS2 (Homo sapiens (Human), UniProt Q9NR19); assay: Biochemical activity ACSS2 assay (AMP-Glo); settings: read-out: IC50 biochemical; human recombinant ACSS2, AMP-Glo, 180 min at 37° C.

`COc1nc2nc(C(O)(c3ccccc3)c3ccccc3)n(CCN)c2cc1-c1nnn[nH]1` showed an IC50 (ACSS2) of 100 to 10000 nM and an IC50 (human rec ACSS2) of 10 to 100 nM.

Only a part of the results on these compounds is given; other tests are left out.
